Data taken from US20230270692A1, “COMPOUNDS FOR CHRONIC DISORDERS” (Pillai Universal LLC, priority 2020, published 2023).

Test system: xenograft nude mice models (triple-negative breast cancer, pancreatic, liver, colon cancer)
Assay: In vivo metastasis / stage IV tumor studies in xenograft nude mice versus standard drugs

“Herceptin: current treatment standard drug, Target HER2 receptors” was tested, and the Toxicity (mouse, in vivo) was “Hematological”, the mortality (mouse, in vivo) was 60% and the mortality (treating stage IV cancer) was 60%.
